US20130101602A1 (ARGOS THERAPEUTICS, published 2013)
Positions count from the first letter of the chain named. In names and notes the source's numbering stands.

Amino acid sequences for entries named in this document (tags omitted). Residues count along the entry.
UniProt P05015, 24-189: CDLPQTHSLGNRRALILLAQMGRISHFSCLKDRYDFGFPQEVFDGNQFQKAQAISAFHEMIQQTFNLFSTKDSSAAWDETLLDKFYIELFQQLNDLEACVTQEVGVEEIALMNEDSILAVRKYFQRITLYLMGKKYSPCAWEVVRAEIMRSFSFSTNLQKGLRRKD
UniProt P05014, 24-189 A74T/E137V: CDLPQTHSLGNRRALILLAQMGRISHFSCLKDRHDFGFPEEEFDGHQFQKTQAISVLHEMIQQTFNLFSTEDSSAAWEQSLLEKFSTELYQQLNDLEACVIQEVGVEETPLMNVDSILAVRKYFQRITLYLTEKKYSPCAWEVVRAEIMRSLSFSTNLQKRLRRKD
UniProt P01570, 24-189: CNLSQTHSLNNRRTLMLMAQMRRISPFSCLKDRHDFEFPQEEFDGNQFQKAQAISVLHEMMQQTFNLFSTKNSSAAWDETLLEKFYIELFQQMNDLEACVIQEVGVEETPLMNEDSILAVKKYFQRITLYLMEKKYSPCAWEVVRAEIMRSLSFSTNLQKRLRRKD
UniProt P05013, 24-189: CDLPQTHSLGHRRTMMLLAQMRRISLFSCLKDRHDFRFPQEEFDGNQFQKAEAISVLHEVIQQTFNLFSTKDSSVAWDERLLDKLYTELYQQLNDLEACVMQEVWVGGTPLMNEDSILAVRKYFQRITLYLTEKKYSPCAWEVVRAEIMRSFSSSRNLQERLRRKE

B1: ACO-1 (murine anti-IFN-α antibody, recombinant) (antibody, V domains shown)
VH: QVQLQQPGAELVKPGASVKLSCKASGYTFTNYWMHWVKQRPGQGLEWIGEINPSHGRTIYNENFKSKATLTVDKSSITAFMQLSSLTSEDSAVYFCARGGLGPAWFAYWGQGTLVTVSA
VL: QIVLTQSPAIMSASPGEKVTLTCSAGSSVDSSYLYWYQQKPGSSPKLWIYSTSNLASGVPARFSGSGSGTSYSLTISSMEAEDAASYFCHQWSSYPFTFGSGTKLEIKR
B2: hzACO-1-kabat CDRH2 (antibody, V domains shown)
VH: QVQLVQSGAEVKKPGASVKVSCKASGYTFTNYWMHWVRQAPGQGLEWMGEINPSHGRTIYNENFKSRVTMTRDTSTSTVYMELSSLRSEDTAVYYCARGGLGPAWFAYWGQGTLVTVSS
VL: EIVLTQSPATLSLSPGERATLSCSAGSSVDSSYLYWYQQKPGQAPRLLIYSTSNLASGIPARFSGSGSGTDFTLTISSLEPEDFAVYYCHQWSSYPFTFGQGTKLEIK
notes: The five single changes were worked out by comparing the two CDRs; Human IgG4(S241P)/kappa; also called traditionally CDR grafted humanized ACO-1
B3: hzACO-1 (humanized ACO-1) (antibody, human IgG4, V domains shown)
VH: B2 VH with N61A, E62Q, N63K, K65Q, S66G
VL: EIVLTQSPATLSLSPGERATLSCSAGSSVDSSYLYWYQQKPGQAPRLLIYSTSNLASGIPARFSGSGSGTDFTLTISSLEPEDFAVYYCHQWSSYPFTFGQGTKLEIKR
notes: also called hzACO-1 IgG4; hzACO-1-IgG4

Experiments:
[1] = target: T1, recombinant human IFN-αB2 (human, UniProt P32881 24-189); assay: cell-based or functional assay
[2] = target: T2, recombinant human IFN-αWA (human, UniProt P05015 24-189); assay: SPR (Biacore) dissociation comparison, mAb immobilised, IFN-α injected
T2 construct: also called hIFN-αWA

[3] = target: T3, recombinant human IFN-α4b (human, UniProt P05014 24-189); assay: as above
T3 construct: 4a and 4b are allelic forms of IFNA4; also called hIFN-α4b

[4] = target: T4, recombinant human IFN-αH2 (human, UniProt P01570 24-189); assay: as above
T4 construct: also called hIFN-αH2

[5] = target: T5, recombinant human IFN-αK (human, UniProt P05013 24-189); assay: as above
T5 construct: also called hIFN-αK

[6] = target: T1, recombinant human IFN-αB2; assay: cell-based or functional assay; remark: listed apart in the source

Binder	IC50 value relative to hzACO-1 (RG assay) [1]	koff [2] [s⁻¹]	koff [3] [s⁻¹]	koff [4] [s⁻¹]	koff [5] [s⁻¹]	IC50 (read off the curve) (reporter gene assay) [6] [µg/mL]
B1	0.47					
B2	0.88	0.000366	0.000155	0.000328	0.000341	
B3						~0.1
